Here are results for 1 molecule from patent publication US4173636A, “Decahydroquinolines, pharmaceutical compositions and methods of use” (Labaz, priority 1975, dated 1979).

The structures appear in SMILES notation. This is a selection: effects in other tests are not listed, and their absence says nothing.

The test concerns arterial pressure. Briefly: Antihypertensive action in hypertensive rats (OKAMOTO and AOKI), intragastric. Conditions: conclusion in words.

Turning to `CCOC(=O)N(c1ccccc1)C1CCN(CCCC(=O)c2ccc(F)cc2)[C@@H]2CCCC[C@@H]12` (stereo partly shown), the antihypertensive action result is listed as “powerful antihypertensive action”.
